Test results taken from publication PMC6359455, “Partial Solvation Parameters of Drugs as a New Thermodynamic Tool for Pharmaceutics” (Pharmaceutics, 2019).

Test: Cohesive energy (solubility-parameter) components by the PSP/LSER method

Compound: COc1ccccc1OCCNCC(O)COc1cccc2[nH]c3ccccc3c12 (stereo not shown) [Carvedilol, carvedilol]
- σtot (square root of total cohesive energy density, equivalent to δtot): 23.55 MPa^0.5
